Bioassay records: PubChem, National Center for Advancing Translational Sciences (NCATS)
A549 viability: kills or reduces viability of A549 cells in Nrf2 counter-screen; A549 ARE-Fluc cells, CellTiter-Fluor viability, 18-24 h; Potency, µM (top dose mostly 46 µM), for the others: at the top dose activity change, negative = cytotoxicity, actives largely listed as inhibitors; actives 0.16% (n = 390,000); AID 504648; also: potency is read from the fitted curve at half-maximal effect; % is scaled to controls: 0 for no effect and ±100 for the full control effect
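A549 ARE-Fluc cells in 5% FBS OPTI-MEM, 5000 cells/well, rested 2 h then exposed to compounds in concentration-response for 18-24 h at 37 °C. Viability by CellTiter-Fluor fluorescence (Ex 405/Em 525) after 30 min; luciferase luminescence (BugLite, 15 min, RT) read afterwards.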
Nrf2 inh: inhibitors of Nrf2 signaling; AID 504444; A549 ARE-Fluc reporter, luciferase luminescence, 18-24 h; Potency, µM (top dose mostly 46 µM), inactives show at the highest dose activity change, negative = inhibition, hits mostly inhibitors; actives 2.1% (n = 360,000); also: potency is read from the fitted curve at half-maximal effect; % is scaled to controls: 0 for no effect and ±100 for the full control effect; nearly all actives have a fitted effect of over 60% in size
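Two sequential reads on A549 ARE_Fluc cells exposed to compound for 18-24 h: a CellTiter-Fluor fluorescence read for viability, then a luciferase luminescence read for Nrf2/ARE activity.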
ClpP mod: qHTS Assay for Activators of ClpP. AID 651965, 2013. purified B. subtilis ClpP, FRET peptide cleavage, 20 min. Potency, µM (highest dose often 57.5 µM), for inactives: top-dose activity change, negative = active. actives 1.9% (n = 340,000); active = well fitted falling curve with a large enough effect; inconclusive = small, poorly fitted or top-dose-only effect; inactive = no such curve, though single readings can be large or run the other way; also: potency is read from the fitted curve at half-maximal effect; the source files actives as falling curves though it sought activators and does not explain the sign; nearly all actives have a fitted effect of over 65% in size
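Buffer: 100 mM Tris/HCl pH8, 100 mM KCl, 0.05% low protease BSA, 2.5% glycerol, 0.01% Tween-20. ClpP 10 microg/mL final; 20 min RT; delta FRET normalized to ADEP and DMSO controls.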
miR-21 reporter: raises the signal of a miR-21 reporter; HeLa miR-21 FLuc reporter, luciferase, 48 h; Potency, µM (top dose mostly 38.3 µM), for inactives: at the highest dose reporter change, positive = more light; AID 2288; 340,000 tested, under 10 active; active = well fitted rising curve with a large enough effect; inconclusive = small, poorly fitted or top-dose-only effect; inactive = no such curve, though single readings can be large or run the other way;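 note: % of control where 0% means no effect; miR-21 action dims this reporter so a rising signal means less miR-21 action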
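HeLa miR-21-FLuc reporter line, endogenous miR-21; 2000 cells/well in DMEM/10% FBS; compound titration up to ~40uM final, 48 h, 37 degree Celsius; luciferase detection reagent, 15 min lysis, CCD luminescence.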
IL-2 act: activators of IL-2; AID 652025; actives 0.065% (n = 360,000); activation, % (series mostly up to about 46 µM); IL-2 activation reporter assay, cell-based qHTS; stimulated with anti-CD3/CD4/CD28 beads; in transgenic mouse T cells; in the data active = activation above about 50%; inconclusive = mostly about 30% to 49%; also: 0% is about no effect
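Quantitative HTS in unstimulated transgenic mouse T cells, with memory T cells as non-tolerant control and PMA/ionomycin as tolerance-bypass control. Compound pretreatment lasted 60 minutes before 18 h bead stimulation; EGFP/DsRed fluorescence read.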
Nrf2 activator: Nrf2 pathway activation. actives 0.31% (n = 410,000). AID 624171. AREc32 ARE-luciferase reporter (MCF7-derived line), luminescence, 24 h. Potency, µM (doses to about 46.1 µM), for the others: at the highest dose activation, usual class: activators; also: potency is read from the fitted curve at half-maximal effect; % of control where 0% means no effect; nearly all actives have a fitted effect of over 65% in size
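AREc32 cells carrying an ARE-driven firefly luciferase reporter were seeded at 1000 cells/well in OPTI-MEM with 5% FBS, then exposed to compound for 24 hr at 37 deg C. Luminescence was read with Steady-Glo after 30 min at RT.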
The depositor's hits bear a star; ? = inconclusive; / = no result. The list is not random: actives were taken first. Their share in the collection is about 3.7%. Unless noted, calls follow the shape of the dose curve; as a rule, active = well fitted curve in the direction sought with a large enough effect; inconclusive = small, poorly fitted or top-dose-only effect, or another doubt; inactive = no such curve, though single readings can be large; an effect the other way counts as inactive or inconclusive.

#1 Cc1ccc(C)c(N2CCN(C(=O)c3cc(S(=O)(=O)N4CCCCCC4)cn3C)CC2)c1
#2 CCc1ccc(S(=O)(=O)Nc2cccc(-c3ccc(N4CCC(C)CC4)nn3)c2)s1
#3 CCOC(=O)c1ccc(COC(=O)CCc2nc3ccccc3[nH]c2=O)o1
#4 CCCCOC(=O)CCc1nc2ccccc2[nH]c1=O
#5 Cc1cccc(N2CCN(C(=O)Nc3ccc(F)cc3)CC2C)c1 (centres undefined)
#6 CCN1CCN(Cc2c(O)ccc3cc(-c4ccc(OC)cc4)c(=O)oc23)CC1
#7 O=C(c1ccco1)N1CCN(c2nc(C3CC3)nc3c2nnn3Cc2ccccc2Cl)CC1
#8 O=C(c1ccco1)N1CCN(c2nc(C3CC3)nc3sc4c(c23)CCCC4)CC1
Compound,1,2,3,4,5,6,7,8
A549 viability,-7.6%,-16.9%,-5.2%,1.3%,0.0%,?,0.8%,?
Nrf2 inh,/,/,-16.4%,-10.5%,-15.3%,/,16.4µM*,23.1µM*
ClpP mod,-1.1%,-8.9%,31.6µM*,?,2.0%,4.4%,-15.1%,-26.5%
miR-21 reporter,7.0%,-12.9%,-7.9%,1.7%,-0.4%,-37.0%,5.8%,18.2%
IL-2 act,/,/,-2.0,-0.5,/,/,0.0,-3.0
Nrf2 activator,3.1%,3.0%,-0.3%,-0.6%,0.6%,6.2%,2.3%,2.7%

#9 Cc1nc(N2CCN(C(=O)c3cccs3)CC2)c2c3c(sc2n1)CCCC3
#10 CCc1nc(N2CCN(C(=O)CCCl)CC2)c2c3c(sc2n1)CCCC3
#11 CCOC(=O)c1nc(N2CCN(C(=O)OCC)CC2)c2c3c(sc2n1)CCCC3
#12 CCOc1ccc(N2CC(c3nc4ccccc4n3CCCOc3ccccc3OC)CC2=O)cc1 (centres undefined)
#13 Cc1ccc(NC(=O)C2CCCN(c3cnccn3)C2)cc1Cl (centres undefined)
#14 Cc1nn2c(C(F)(F)F)cc(-c3ccc(OC(C)C)cc3)nc2c1C#N
#15 COc1ccc(-c2c(C)nn3c(C(F)(F)F)cc(-c4ccc(C)cc4)nc23)cc1
#16 Cc1cccc(CNC(=O)c2ccc(-c3nc(CS(=O)(=O)c4ccccc4)c(C)o3)cc2)c1
Compound,9,10,11,12,13,14,15,16
A549 viability,?,/,-6.8%,?,-6.5%,-0.3%,-1.8%,6.1%
Nrf2 inh,18.4µM*,/,25.9µM*,?,-5.7%,8.7%,2.4%,?
ClpP mod,/,-1.8%,?,6.9%,-12.0%,5.01µM*,-0.9%,4.2%
miR-21 reporter,27.6%,/,13.8%,19.0%,-6.6%,0.4%,2.3%,-8.2%
IL-2 act,-0.3,-1.5,-1.7,/,/,/,/,/
Nrf2 activator,0.2%,2.4%,0.7%,-0.5%,3.6%,15.8%,0.2%,0.9%

#17 COc1cccc(CNC(=O)c2ccc(-c3nc(CS(=O)(=O)c4ccccc4)c(C)o3)cc2)c1
#18 COc1cccc(NC(=O)CS(=O)(=O)Cc2nc(-c3ccc(C)cc3)oc2C)c1
#19 Cc1ccc2c(c1)CCCN2C(=O)c1cnn2c1NC(=C1CC1)C=C2C(F)F
#20 Cc1cccc(N2CCN(c3ncnc4onc(C)c34)CC2C)c1 (centres undefined)
#21 Cc1cccc(N2CCN(c3ncnc4onc(-c5ccc(F)cc5)c34)CC2C)c1 (centres undefined)
#22 CCOc1ccc(C(=O)CC(C(=O)O)N2CCN(Cc3ccccc3)CC2)cc1 (centres undefined)
#23 CCOc1ccc(C(=O)CCC(=O)N(CC)CC(=O)NCc2cccs2)cc1
#24 CCOc1ccc(C(=O)CC(C(=O)O)N2CCCCC2)cc1 (centres undefined)
Compound,17,18,19,20,21,22,23,24
A549 viability,7.4%,-15.0%,/,?,9.1%,2.0%,9.7%,-6.8%
Nrf2 inh,23.1µM*,25.9µM*,/,23.1µM*,24.1%,-2.1%,5.2%,-20.2%
ClpP mod,3.5%,/,-2.0%,1.6%,?,-2.3%,-3.0%,0.8%
miR-21 reporter,6.5%,2.6%,/,?,23.3%,/,/,/
IL-2 act,/,-1.4,/,/,/,-0.6,0.0,-0.9
Nrf2 activator,0.5%,1.5%,/,-0.5%,9.0%,?,1.6%,15.8µM*

Copied from the listing for reference:
#17 COc1cccc(CNC(=O)c2ccc(-c3nc(CS(=O)(=O)c4ccccc4)c(C)o3)cc2)c1
#18 COc1cccc(NC(=O)CS(=O)(=O)Cc2nc(-c3ccc(C)cc3)oc2C)c1
#19 Cc1ccc2c(c1)CCCN2C(=O)c1cnn2c1NC(=C1CC1)C=C2C(F)F
Compound,17,18,19
A549 viability,7.4%,-15.0%,/
Nrf2 inh,23.1µM*,25.9µM*,/
ClpP mod,3.5%,/,-2.0%
miR-21 reporter,6.5%,2.6%,/
IL-2 act,/,-1.4,/
Nrf2 activator,0.5%,1.5%,/

(list continues)
#25 CCOc1ccc(C(=O)CC(NCc2cccs2)C(=O)O)cc1 (centres undefined)
#26 Cc1ccc(C(=O)Oc2coc(CSc3nnc(NC(=O)C4CC4)s3)cc2=O)cc1
#27 COC(=O)c1scc(-c2ccc(C)cc2)c1S(=O)(=O)N1CCN(c2ccc(C)cc2C)CC1
#28 Cc1ccc(CNCc2ccccc2Cl)s1
#29 CCOc1ccc(Oc2nc(Nc3ccc(C)cc3)nc(N(C)C)n2)nn1
#30 CCN(CC)c1nc(Nc2ccccc2)nc(Oc2ccc(=O)n(C)n2)n1
#31 Cn1c2cc(S(C)=O)sc2c2cnn(Cc3ccccc3F)c(=O)c21 (centres undefined)
Compound,25,26,27,28,29,30,31
A549 viability,1.2%,-3.5%,0.9%,3.4%,-12.3%,-5.6%,11.4%
Nrf2 inh,3.3%,20.6µM*,-33.9%,6.1%,20.6µM*,-22.8%,-14.0%
ClpP mod,/,-10.0%,1.2%,1.8%,1.4%,-5.9%,/
miR-21 reporter,-0.7%,-18.1%,15.2%,-27.8%,0.6%,1.8%,/
IL-2 act,-0.1,0.2,/,/,0.4,-1.7,/
Nrf2 activator,11.2µM*,-1.7%,0.9%,-0.2%,0.2%,9.9%,/
